Assay results taken from patent US10526320B2, “Pyrrolidine derivatives as PPAR agonists” (GUANGDONG RAYNOVENT BIOTECH CO., LTD., priority 2016, dated 2020).

Amino acid sequences for entries named in this document (tags omitted).
UniProt Q03181, whole entry: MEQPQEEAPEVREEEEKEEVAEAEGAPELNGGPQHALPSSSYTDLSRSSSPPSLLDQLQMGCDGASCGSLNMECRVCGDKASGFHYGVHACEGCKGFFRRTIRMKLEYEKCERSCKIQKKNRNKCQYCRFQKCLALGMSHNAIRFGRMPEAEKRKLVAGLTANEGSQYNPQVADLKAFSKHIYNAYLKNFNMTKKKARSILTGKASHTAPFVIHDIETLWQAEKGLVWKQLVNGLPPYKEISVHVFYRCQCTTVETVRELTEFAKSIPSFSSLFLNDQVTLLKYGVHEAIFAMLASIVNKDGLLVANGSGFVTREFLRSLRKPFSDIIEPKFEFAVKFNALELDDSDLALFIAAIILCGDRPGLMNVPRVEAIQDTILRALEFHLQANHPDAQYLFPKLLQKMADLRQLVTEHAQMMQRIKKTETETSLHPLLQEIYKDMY
UniProt Q07869, whole entry: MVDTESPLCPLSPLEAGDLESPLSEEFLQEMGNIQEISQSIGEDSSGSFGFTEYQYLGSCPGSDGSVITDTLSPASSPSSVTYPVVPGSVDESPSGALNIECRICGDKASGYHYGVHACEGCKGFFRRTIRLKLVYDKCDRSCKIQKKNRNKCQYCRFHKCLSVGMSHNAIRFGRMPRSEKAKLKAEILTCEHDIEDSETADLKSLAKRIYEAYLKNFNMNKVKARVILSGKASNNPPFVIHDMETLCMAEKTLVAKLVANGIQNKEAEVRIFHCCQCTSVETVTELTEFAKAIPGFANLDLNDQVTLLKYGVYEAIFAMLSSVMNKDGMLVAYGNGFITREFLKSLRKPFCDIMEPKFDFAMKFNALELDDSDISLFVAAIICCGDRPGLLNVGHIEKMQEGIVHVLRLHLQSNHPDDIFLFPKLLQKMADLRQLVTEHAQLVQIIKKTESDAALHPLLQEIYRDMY
UniProt P37231, whole entry: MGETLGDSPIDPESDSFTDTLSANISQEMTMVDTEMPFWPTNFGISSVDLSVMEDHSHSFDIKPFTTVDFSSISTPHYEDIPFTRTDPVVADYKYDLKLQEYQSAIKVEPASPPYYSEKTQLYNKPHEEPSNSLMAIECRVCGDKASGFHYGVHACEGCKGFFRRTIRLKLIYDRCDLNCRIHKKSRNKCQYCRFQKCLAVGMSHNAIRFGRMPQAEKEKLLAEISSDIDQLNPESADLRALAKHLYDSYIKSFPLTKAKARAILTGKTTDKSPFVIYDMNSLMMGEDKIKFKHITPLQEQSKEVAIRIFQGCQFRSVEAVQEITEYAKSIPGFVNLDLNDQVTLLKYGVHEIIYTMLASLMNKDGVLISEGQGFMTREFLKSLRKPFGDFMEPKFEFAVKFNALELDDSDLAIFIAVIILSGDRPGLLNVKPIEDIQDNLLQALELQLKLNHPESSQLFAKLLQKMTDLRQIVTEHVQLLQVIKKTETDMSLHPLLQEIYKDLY

What was measured:
Format in all cases: cell-based
PPAR Delta = PPAR Delta (Homo sapiens, UniProt Q03181); assay: PathHunter NHR protein interaction / nuclear translocation agonist test, PPAR Delta; conditions: read-out: PPAR Delta EC50 nM; agonist mode
PPAR Alpha = PPAR Alpha (Homo sapiens, UniProt Q07869); assay: PathHunter NHR protein interaction / nuclear translocation agonist test, PPAR Alpha; conditions: read-out: PPAR Alpha EC50 nM; agonist mode
PPAR Gamma = PPAR Gamma (Homo sapiens, UniProt P37231); assay: PathHunter NHR protein interaction / nuclear translocation agonist test, PPAR Gamma; conditions: read-out: PPAR Gamma EC50 nM; agonist mode

Compound | EC50 (PPAR Delta) | EC50 (PPAR Alpha) | EC50 (PPAR Gamma)
CSc1ccc(C(=O)C2CN(C(=O)N3CCCC3)CC2c2cc(C)c(OC(C)(C)C(=O)O)c(C)c2)cc1 (single isomer, unassigned) | > 250 nM | 200 to 250 nM | 
CSc1ccc(C(=O)C2CN(C(=O)Oc3ccc(Cl)cc3)CC2CCc2cc(C)c(OC(C)(C)C(=O)O)c(C)c2)cc1 (single isomer, unassigned) [Compound 45] | 150 to 200 nM | < 100 nM | > 250 nM
Cc1cc(CCC2CN(C(=O)Oc3ccccc3)CC2C(=O)c2ccc(Br)cc2)cc(C)c1OC(C)(C)C(=O)O (single isomer, unassigned) | < 100 nM | < 100 nM | 200 to 250 nM
CSc1ccc(CC2CN(C(=O)Oc3ccc(Cl)cc3)CC2c2cc(C)c(OC(C)(C)C(=O)O)c(C)c2)cc1 (single isomer, unassigned) [Compound 31] | > 250 nM | 150 to 200 nM | 
CSc1ccc(C(=O)C2CN(C(=O)Oc3ccc(Br)cc3)CC2Cc2cc(C)c(OC(C)(C)C(=O)O)c(C)c2)cc1 (single isomer, unassigned) | < 100 nM | < 100 nM | 
CSc1ccc(CC2CN(C(=O)Oc3ccc(Cl)cc3)CC2c2cc(C)c(OC(C)(C)C(=O)O)c(C)c2)cc1 (single isomer, unassigned) [Compound 32] | > 250 nM | < 100 nM | 
COCCN1CC(CCc2cc(C)c(OC(C)(C)C(=O)O)c(C)c2)C(C(=O)c2ccc(SC)cc2)C1 (single isomer, unassigned) | 200 to 250 nM | 200 to 250 nM | 
CSc1ccc(C(=O)C2CN(C(=O)Oc3ccccc3)CC2Cc2cc(C)c(OC(C)(C)C(=O)O)c(C)c2)cc1 (single isomer, unassigned) | < 100 nM | < 100 nM | 
CSc1ccc(C(=O)C2CN(C(=O)Oc3ccccc3)CC2Cc2cc(C)c(OCC(=O)O)c(C)c2)cc1 (single isomer, unassigned) | 150 to 200 nM | 100 to 150 nM | 200 to 250 nM
CSc1ccc(C(=O)C2CN(C(=O)C(C)C)CC2c2cc(C)c(OC(C)(C)C(=O)O)c(C)c2)cc1 (single isomer, unassigned) |  | > 250 nM | 
CSc1ccc(C(=O)C2CN(C(=O)Oc3ccc(Cl)cc3)CC2CCc2cc(C)c(OC(C)(C)C(=O)O)c(C)c2)cc1 (single isomer, unassigned) [Compound 44] | 200 to 250 nM | < 100 nM | > 250 nM
